Data published in patent EP1682577B1, “CELL-BASED ASSAYS EMPLOYING VOLTAGE AND CALCIUM DYES” (priority 2003, dated 2005).

Amino acid sequences for entries named in this document (tags omitted). Residues count along the entry.
UniProt P47871, 26-477, species assumed: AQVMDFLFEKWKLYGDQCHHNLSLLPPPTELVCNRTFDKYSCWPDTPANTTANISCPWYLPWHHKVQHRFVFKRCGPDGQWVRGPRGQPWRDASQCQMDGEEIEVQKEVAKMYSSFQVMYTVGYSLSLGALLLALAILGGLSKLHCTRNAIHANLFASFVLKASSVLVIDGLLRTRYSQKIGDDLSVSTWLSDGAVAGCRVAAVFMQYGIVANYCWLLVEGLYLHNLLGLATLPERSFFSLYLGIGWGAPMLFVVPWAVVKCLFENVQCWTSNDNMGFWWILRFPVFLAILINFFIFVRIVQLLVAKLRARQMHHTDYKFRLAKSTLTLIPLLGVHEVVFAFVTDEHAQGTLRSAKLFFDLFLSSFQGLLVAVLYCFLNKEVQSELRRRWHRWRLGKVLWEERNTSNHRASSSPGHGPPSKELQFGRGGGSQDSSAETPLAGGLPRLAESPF

Molecular target: T1, GCGR (Homo sapiens, UniProt P47871)
T1 construct: expressed in transfected cells
Format: cell-based

glucagon
Fmax/ Fb: 4.2 and 4.9 and 4 and 4.6

Several values for one entry are separate records, joined by “and”; a condition that tells them apart may be missing. Equal values may be shown once.
